Earlier results on one compound are cited in patent US6136797A, “Phospholipid derivatives of phosphono-carboxylic acids, the production of said derivatives and the use of said derivatives as antiviral medicaments” (priority 1995, dated 2000).

This data set deals with HSV 1 and 2, influenza, HBV, VZV, EBV as well as retroviral infections. The following applies: cited from earlier work.

Each structure is given as a SMILES string.

As for `O=C(O)P(=O)(O)O` [phosphonoformic acid], the antiviral activity result is on record as “good antiviral activity”.
